Like-named read-outs stand apart in the source and are kept apart here.
Settings: mean ± SD of 8 subjects with stage 3–4 chronic kidney disease

O=C(O)CNC(=O)c1ccccc1[131I] [^131I-OIH, ^131I-o-iodohippuran]
Clearance, mean ± SD: 171 mL/min/1.73 m^2
Clearance, mean ± SD (listed as OIH): 171 ± 66 mL/min/1.73 m^2

Reference: article PMC3989841 (Journal of nuclear medicine : official publication, Society …, 2013)
